The values that follow come from PMC11524583, “Neurons enhance blood–brain barrier function via upregulating claudin-5 and VE-cadherin expression due to glial cell line-derived neurotrophic factor secretion” (eLife, 2024).

For series [1], the system named is hCMEC/D3 mono-culture BBB model.
Series [2] is described as follows: in vitro. As to conditions: human.
The test system of series [3] is triple co-culture BBB model (hCMEC/D3, U251 and SH-SY5Y cells). As to conditions: human.
Series [4] can be described thus: in vitro. The note with it: human. This is another data set of the same source.

Read-outs that look alike come from different tables or passages of the source.

Usually Papp A→B stands for the apparent permeability from the apical to the basolateral side of a cell layer. Low values mean slow passage, high ones fast passage. For the molecule `CC(NC(C)(C)C)C(=O)c1cccc(Cl)c1` (centres unmarked) [Buproprion], the Papp A→B in series [1] stood at 15.6 ×10⁻⁶ cm/s.
Consider `CCN(CC)CCNC(=O)c1cc(Cl)c(N)cc1OC` [Metoclopramide], for which the Papp A→B in series [1] (human, 30 min) stood at 14.3 ×10⁻⁶ cm/s; in series [3] (30 min), 6.51 ×10⁻⁶ cm/s. The molecule also displayed an apparent permeability from apical to basolateral (Papp A→B) at 30 min in series [2] (Papp, Triple) of 6.63 ± 0.42 ×10⁻⁶ cm/s.
In turn, `CN(C)CCC=C1c2ccccc2CCc2ccccc21` [Amitriptyline] gave a Papp A→B in series [1] (human, 30 min) of 14.3 ×10⁻⁶ cm/s.
`CN(C)CCC=C1c2ccccc2COc2ccccc21` [Doxepin] gave a Papp A→B in series [1] (human, 30 min) of 14.3 ×10⁻⁶ cm/s. For the same molecule, the Papp A→B at 30 min in series [2] (Papp Mean) came to 10.7 ×10⁻⁶ cm/s; in series [2] (Papp, Triple), 10.7 ± 0.92 ×10⁻⁶ cm/s.
Take `Cc1nc2n(c(=O)c1CCN1CCC(c3noc4cc(F)ccc34)CC1)CCCC2` [Risperidone]: the apical-to-basolateral permeability (Papp A→B) at 30 min in series [4] (Papp, Mono) turned out to be 16.1 ± 2.87 ×10⁻⁶ cm/s; in series [2] (Papp (individual replicate)), 12.6 ×10⁻⁶ cm/s; in series [2] (Papp, Triple), 11.7 ± 0.25 ×10⁻⁶ cm/s. Besides, the “PSPre, Mono” value in series [1] (human) was 1463.64 µL/min/g. Besides, the PS in series [1] (human, 30 min) worked out at 1463.64 µL/min/g; in series [3] (30 min), 1063.64 µL/min/g. Further, in series [3], the “PSPre, Triple” value is 1063.64 µL/min/g.
With `NC12CC3CC(CC(C3)C1)C2` [Amantadine], the Papp A→B in series [1] (human, 30 min) came to 5.44 ×10⁻⁶ cm/s.
In series [4] (Papp, Mono, apical to basolateral, 30 min, 37°C, day 6, mean ± SEM, four biological replicates), `NCC1(CC(=O)O)CCCCC1` [Gabapentin] returned a Papp A→B of 16.8 ± 1.62 ×10⁻⁶ cm/s.
Regarding `Cc1cc2c(s1)Nc1ccccc1N=C2N1CCN(C)CC1` [Olanzapine], the Papp A→B at 30 min in series [4] (Papp Mean) turned out to be 22.9 ×10⁻⁶ cm/s; in series [4] (Papp, Mono), 22.9 ± 3.8 ×10⁻⁶ cm/s. Also, the “PSPre, Mono” value in series [1] (human) was 6064.41 µL/min/g. The PS was 6064.41 µL/min/g in series [1] (human, 30 min) and 3306.18 µL/min/g in series [3] (30 min). Moreover, the “PSPre, Triple” value in series [3] was determined as 3306.18 µL/min/g.
